Measured values taken from patent publication US20260384450A1, “MACROCYCLIC AMINOPYRIDINE COMPOUNDS AS EGFR INHIBITORS” (published 2026).

Chains of the proteins cited; added tags and fusions are not shown. Lines headed by an entry give the natural chain unless they say otherwise; changes in a name come on top. A line that says so, or that is headed by a name, gives the form on record, which may keep a tag or linker. Residues count along the entry.
UniProt P00533, 25-1210 limits assumed: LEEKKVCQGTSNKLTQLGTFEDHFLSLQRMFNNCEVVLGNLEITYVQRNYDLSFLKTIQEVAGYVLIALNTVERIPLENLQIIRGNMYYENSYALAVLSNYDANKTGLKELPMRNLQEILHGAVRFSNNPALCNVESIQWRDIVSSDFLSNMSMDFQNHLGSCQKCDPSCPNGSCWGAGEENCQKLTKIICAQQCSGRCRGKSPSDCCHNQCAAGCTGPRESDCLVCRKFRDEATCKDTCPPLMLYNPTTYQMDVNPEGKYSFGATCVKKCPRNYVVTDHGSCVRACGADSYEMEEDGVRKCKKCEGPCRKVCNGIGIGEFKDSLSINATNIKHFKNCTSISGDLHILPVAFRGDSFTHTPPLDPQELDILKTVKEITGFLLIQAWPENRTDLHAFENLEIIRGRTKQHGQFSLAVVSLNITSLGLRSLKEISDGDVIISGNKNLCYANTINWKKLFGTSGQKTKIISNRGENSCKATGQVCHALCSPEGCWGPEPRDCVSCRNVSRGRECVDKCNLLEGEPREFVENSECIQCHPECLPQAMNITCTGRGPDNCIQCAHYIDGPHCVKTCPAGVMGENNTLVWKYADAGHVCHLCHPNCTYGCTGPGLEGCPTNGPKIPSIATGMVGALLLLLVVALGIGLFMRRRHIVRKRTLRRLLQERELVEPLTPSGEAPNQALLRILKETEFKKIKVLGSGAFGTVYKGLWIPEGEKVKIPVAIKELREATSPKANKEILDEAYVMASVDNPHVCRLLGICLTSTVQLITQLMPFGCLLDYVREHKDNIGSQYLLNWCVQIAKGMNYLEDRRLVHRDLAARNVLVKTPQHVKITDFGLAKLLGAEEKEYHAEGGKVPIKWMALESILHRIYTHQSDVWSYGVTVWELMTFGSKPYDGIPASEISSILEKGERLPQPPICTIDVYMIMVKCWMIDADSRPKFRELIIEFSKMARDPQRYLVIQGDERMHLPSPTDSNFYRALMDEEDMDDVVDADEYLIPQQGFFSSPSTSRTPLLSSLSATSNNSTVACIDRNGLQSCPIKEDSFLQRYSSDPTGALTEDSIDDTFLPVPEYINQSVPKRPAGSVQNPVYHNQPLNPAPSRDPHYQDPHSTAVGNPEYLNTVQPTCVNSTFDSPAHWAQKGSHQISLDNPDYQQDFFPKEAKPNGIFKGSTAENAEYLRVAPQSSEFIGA
UniProt P00533, 25-1210 C797S/L858R limits assumed: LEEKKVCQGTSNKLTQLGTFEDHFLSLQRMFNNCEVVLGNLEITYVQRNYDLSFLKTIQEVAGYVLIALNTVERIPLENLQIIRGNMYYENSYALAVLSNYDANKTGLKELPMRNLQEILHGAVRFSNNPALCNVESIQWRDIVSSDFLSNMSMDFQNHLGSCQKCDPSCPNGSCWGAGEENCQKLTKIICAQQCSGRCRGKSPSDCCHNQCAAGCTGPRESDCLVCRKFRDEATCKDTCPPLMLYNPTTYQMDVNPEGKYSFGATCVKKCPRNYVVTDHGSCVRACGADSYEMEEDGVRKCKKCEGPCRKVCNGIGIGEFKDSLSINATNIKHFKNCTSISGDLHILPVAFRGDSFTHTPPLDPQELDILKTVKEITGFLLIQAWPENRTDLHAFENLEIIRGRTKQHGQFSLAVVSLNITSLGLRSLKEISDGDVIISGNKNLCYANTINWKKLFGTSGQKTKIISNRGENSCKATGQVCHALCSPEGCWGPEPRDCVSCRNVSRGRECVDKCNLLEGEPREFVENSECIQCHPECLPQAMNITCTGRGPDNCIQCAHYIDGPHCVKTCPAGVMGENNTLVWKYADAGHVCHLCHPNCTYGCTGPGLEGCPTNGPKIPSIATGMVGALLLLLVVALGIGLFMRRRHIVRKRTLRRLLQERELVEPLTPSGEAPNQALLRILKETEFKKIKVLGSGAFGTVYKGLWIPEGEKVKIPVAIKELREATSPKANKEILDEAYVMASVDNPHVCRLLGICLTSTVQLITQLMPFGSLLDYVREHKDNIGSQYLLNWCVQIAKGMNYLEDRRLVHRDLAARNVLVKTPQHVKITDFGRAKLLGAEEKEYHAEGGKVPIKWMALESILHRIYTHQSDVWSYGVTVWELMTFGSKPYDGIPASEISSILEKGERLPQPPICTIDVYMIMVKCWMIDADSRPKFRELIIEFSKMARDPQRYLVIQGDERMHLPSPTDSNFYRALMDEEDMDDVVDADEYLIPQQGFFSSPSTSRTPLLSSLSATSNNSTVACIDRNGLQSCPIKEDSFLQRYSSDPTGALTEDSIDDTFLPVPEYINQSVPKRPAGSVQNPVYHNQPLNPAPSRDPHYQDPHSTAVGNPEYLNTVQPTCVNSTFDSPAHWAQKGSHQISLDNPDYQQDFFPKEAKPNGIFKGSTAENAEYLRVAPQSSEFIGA
UniProt P00533, 25-1210 T790M/C797S/L858R limits assumed: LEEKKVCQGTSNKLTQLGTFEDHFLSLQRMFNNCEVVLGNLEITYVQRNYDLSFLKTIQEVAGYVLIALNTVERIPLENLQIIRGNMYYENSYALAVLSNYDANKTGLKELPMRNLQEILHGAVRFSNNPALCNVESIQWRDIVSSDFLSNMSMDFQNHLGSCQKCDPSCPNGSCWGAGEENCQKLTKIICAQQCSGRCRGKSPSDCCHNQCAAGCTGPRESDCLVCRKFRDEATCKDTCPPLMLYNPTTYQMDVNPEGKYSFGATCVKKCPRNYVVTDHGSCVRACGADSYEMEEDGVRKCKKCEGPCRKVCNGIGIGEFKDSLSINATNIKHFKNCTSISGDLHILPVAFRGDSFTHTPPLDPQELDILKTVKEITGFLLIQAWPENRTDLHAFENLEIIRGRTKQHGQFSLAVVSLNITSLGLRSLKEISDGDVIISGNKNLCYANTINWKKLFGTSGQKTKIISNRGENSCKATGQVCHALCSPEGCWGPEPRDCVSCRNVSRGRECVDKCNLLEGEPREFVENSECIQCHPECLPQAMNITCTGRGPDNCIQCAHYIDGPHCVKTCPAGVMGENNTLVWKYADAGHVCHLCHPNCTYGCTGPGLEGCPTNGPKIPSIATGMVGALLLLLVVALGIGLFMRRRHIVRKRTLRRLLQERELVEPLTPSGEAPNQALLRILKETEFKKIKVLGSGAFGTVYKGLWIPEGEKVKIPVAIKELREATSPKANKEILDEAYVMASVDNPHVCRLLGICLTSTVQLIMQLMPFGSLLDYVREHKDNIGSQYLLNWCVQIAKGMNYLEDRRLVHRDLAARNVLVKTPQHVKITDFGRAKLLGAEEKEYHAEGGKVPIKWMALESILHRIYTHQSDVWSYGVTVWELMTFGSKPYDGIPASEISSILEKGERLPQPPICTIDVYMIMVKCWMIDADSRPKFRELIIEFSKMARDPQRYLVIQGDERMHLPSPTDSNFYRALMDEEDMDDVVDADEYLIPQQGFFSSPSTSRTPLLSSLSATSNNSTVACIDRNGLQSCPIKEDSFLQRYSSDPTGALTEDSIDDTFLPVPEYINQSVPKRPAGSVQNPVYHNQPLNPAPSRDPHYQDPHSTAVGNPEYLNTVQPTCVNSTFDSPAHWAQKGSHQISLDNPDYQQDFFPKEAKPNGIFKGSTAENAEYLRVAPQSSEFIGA
UniProt P00533, with tags, fused parts or gaps DEL746-750/C797S limits assumed: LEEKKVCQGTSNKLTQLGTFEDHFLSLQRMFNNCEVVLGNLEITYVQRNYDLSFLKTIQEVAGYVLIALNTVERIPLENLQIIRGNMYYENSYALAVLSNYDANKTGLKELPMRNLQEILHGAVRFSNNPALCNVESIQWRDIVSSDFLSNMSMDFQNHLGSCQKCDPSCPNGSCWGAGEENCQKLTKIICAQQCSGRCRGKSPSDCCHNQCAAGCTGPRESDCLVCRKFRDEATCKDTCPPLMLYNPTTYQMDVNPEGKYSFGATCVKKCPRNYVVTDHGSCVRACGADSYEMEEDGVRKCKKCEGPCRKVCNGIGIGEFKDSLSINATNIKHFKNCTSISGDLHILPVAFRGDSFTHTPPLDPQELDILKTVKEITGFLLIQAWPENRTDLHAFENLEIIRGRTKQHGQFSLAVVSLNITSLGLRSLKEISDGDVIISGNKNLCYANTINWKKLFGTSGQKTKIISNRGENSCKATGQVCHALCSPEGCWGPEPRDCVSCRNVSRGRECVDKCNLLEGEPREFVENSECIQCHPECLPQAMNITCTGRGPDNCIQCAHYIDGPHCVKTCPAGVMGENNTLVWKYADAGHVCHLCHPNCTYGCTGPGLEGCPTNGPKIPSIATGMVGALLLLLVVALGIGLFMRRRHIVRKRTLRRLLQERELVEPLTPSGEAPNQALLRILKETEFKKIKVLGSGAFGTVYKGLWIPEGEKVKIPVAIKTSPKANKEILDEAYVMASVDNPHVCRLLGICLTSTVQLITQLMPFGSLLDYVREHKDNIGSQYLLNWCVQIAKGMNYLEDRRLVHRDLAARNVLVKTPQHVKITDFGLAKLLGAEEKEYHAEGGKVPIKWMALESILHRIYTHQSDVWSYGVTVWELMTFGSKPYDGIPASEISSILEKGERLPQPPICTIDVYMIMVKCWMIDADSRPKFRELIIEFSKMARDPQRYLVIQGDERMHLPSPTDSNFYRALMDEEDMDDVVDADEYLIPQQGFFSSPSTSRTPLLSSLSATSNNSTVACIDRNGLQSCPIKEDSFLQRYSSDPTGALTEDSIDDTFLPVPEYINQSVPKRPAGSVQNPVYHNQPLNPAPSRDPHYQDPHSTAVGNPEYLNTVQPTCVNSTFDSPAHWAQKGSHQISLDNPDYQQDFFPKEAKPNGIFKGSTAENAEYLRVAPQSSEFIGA
UniProt P00533, with tags, fused parts or gaps DEL746-750/T790M/C797S limits assumed: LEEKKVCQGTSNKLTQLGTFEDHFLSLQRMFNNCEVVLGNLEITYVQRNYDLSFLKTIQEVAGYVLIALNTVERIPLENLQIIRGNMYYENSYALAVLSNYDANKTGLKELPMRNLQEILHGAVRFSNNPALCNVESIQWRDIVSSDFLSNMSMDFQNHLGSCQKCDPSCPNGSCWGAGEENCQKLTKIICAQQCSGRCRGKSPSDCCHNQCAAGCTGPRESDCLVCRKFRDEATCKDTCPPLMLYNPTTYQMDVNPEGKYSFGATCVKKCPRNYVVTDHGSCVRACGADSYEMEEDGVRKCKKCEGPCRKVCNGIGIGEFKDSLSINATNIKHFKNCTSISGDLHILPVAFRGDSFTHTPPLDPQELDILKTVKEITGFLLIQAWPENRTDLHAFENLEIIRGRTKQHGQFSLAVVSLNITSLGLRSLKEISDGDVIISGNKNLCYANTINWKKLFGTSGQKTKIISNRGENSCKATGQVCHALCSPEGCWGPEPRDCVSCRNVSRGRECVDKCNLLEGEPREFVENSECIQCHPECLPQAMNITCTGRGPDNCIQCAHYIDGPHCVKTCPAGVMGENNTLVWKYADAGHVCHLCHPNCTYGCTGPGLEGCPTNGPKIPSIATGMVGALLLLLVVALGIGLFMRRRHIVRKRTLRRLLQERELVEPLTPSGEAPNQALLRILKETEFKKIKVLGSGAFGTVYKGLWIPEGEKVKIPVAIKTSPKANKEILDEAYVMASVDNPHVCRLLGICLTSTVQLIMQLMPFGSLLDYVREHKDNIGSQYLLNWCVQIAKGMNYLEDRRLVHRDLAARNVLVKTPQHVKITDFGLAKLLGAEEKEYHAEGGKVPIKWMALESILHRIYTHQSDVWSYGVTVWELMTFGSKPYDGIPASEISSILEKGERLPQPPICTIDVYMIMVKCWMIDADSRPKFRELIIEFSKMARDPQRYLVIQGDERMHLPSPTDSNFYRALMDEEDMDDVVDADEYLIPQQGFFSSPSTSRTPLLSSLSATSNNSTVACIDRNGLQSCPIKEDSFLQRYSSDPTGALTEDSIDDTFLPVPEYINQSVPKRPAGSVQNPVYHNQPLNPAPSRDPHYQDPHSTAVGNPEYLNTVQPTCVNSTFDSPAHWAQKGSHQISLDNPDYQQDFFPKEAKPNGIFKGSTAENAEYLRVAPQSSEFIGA

How the values were obtained:
[1] = target: EGFR LRTMCS (L858R/T790M/C797S) (Homo sapiens, UniProt P00533, C797S/L858R/T790M); assay: Biochemical EGFR kinase assay (Lance Ultra TR-FRET), triple mutant L858R/T790M/C797S
Description: (§1) Biochemical EGFR kinase assays were conducted using Lance Ultra time-resolved fluorescence resonance energy transfer (TR-FRET) technology from Perkin-Elmer. Compounds of the invention were initially diluted to 20 mM in 100% DMSO for storage and made into kinase buffer solution to create a compound concentration ranging from 0.003 μM and 10 μM.
(§2) Briefly, each EGFR enzyme wildtype (EGFR WT), double mutant [del19/C797S (EGFR D19CS) and L858R/C797S (EGFR LRCS)], triple mutant [del19/T790M/C797S (EGFR D19TMCS) and L858R/T790M/C797S (EGFR LRTMCS)], serial diluted EGFR inhibitors, substrate of ULight-poly-GT peptide (PerkinElmer; TRF0100-M) and different concentrations of ATP (Km and 100 μM final assay concentration) were mixed in kinase assay buffer (50 mM HEPES pH 7.4, 10 mM MgCl2, 1 mM EGTA, 2 mM DTT and 0.01% Tween-20) and were added to a 384-well plate (Optiplate™ 384, white, PerkinElmer; 6007290).
(§3) Each kinase reactions were incubated at room temperature for 1 hour and then stopped by the addition of 4 μL of stop solution (10 mM EDTA). The specific Europium-labeled-anti-phosphopeptide antibody (PerkinElmer, AD0069) diluted in LANCE detection buffer was then added to a final concentration of 2 nM. After 60 minutes incubation at room temperature the LANCE signal was measured on an EnVision Multilabel Reader (Perkin-Elmer). Excitation wavelength was set at 320 nm and emission monitored at 615 nm (donor) and 665 nm (acceptor). The IC50 values were determined using GraphPad prism software (GraphPad Software, Inc., San Diego, CA, USA).

EGFR D19CS (del19/C797S) = EGFR D19CS (del19/C797S) (Homo sapiens, UniProt P00533, C797S/DEL746-750); assay: Biochemical EGFR kinase assay (Lance Ultra TR-FRET), double mutant del19/C797S
Description: as §1, §2, §3

EGFR WT = EGFR WT (Homo sapiens, UniProt P00533); assay: Biochemical EGFR kinase assay (Lance Ultra TR-FRET), wildtype
Description: as §1, §2, §3

[2] = target: EGFR D19TMCS (del19/T790M/C797S) (Homo sapiens, UniProt P00533, C797S/DEL746-750/T790M); assay: Biochemical EGFR kinase assay (Lance Ultra TR-FRET), triple mutant del19/T790M/C797S
Description: as §1, §2, §3

EGFR LRCS (L858R/C797S) = EGFR LRCS (L858R/C797S) (Homo sapiens, UniProt P00533, C797S/L858R); assay: Biochemical EGFR kinase assay (Lance Ultra TR-FRET), double mutant L858R/C797S
Description: as §1, §2, §3

[3] = read-out: EGFR LRTMCS IC50, ATP 1 mM
[4] = read-out: EGFR LRTMCS IC50, ATP Km
[5] = read-out: EGFR D19CS IC50, ATP 1 mM
[6] = read-out: EGFR D19CS IC50, ATP Km
[7] = read-out: EGFR WT IC50, ATP 1 mM
[8] = read-out: EGFR D19TMCS IC50, ATP 1 mM
[9] = read-out: EGFR D19TMCS IC50, ATP Km
[10] = read-out: EGFR LRCS IC50, ATP 1 mM
[11] = read-out: EGFR LRCS IC50, ATP Km
[12] = read-out: IC50, EGFR LRTMCS, 1 mM, ATP 1 mM, EGFR L858R/T790M/C797S
[13] = read-out: IC50, EGFR LRTMCS, Km, ATP at Km, EGFR L858R/T790M/C797S
[14] = read-out: IC50, EGFR-D19CS, 1 mM, ATP 1 mM, EGFR del19/C797S
[15] = read-out: IC50, EGFR-D19CS, Km, ATP at Km, EGFR del19/C797S
[16] = read-out: IC50, EGFR WT, 1 mM, ATP 1 mM, EGFR wildtype
[17] = read-out: IC50, EGFR WT, Km, ATP at Km, EGFR wildtype
[18] = read-out: IC50, EGFR D19TMCS, Km, ATP at Km, EGFR del19/T790M/C797S
[19] = read-out: IC50, EGFR-LRCS, 1 mM, ATP 1 mM, EGFR L858R/C797S
[20] = read-out: IC50, EGFR-LRCS, Km, ATP at Km, EGFR L858R/C797S

Structure (SMILES): C[C@H]1CCOc2c(cnn2C)-c2nccc(n2)Nc2cc(c(-c3cc(NC4CC(F)(F)C4)ccn3)cn2)N1
- IC50 [1, 3]: < 10 nM
- IC50 [1, 4]: < 10 nM
- IC50 (EGFR D19CS (del19/C797S); [5]): 10 to 100 nM
- IC50 (EGFR D19CS (del19/C797S); [6]): 10 to 100 nM
- IC50 (EGFR WT; [7]): > 1000 nM
- IC50 (EGFR WT; read-out: EGFR WT IC50, ATP Km): 10 to 100 nM
- IC50 [2, 8]: < 10 nM
- IC50 [2, 9]: < 10 nM
- IC50 (EGFR LRCS (L858R/C797S); [10]): 100 to 1000 nM
- IC50 (EGFR LRCS (L858R/C797S); [11]): 10 to 100 nM

Structure (SMILES): Cc1nn(C)c2c1-c1nccc(n1)Nc1cc(c(-c3ccn(C(F)F)n3)cn1)O[C@@H](C)CCO2
- IC50 [1, 3]: > 1000 nM
- IC50 [1, 4]: > 1000 nM
- IC50 (EGFR D19CS (del19/C797S); [5]): > 1000 nM
- IC50 (EGFR D19CS (del19/C797S); [6]): > 1000 nM
- IC50 (EGFR WT; [7]): > 1000 nM
- IC50 (EGFR WT; read-out: EGFR WT IC50, ATP Km): > 1000 nM
- IC50 [2, 8]: > 1000 nM
- IC50 [2, 9]: > 1000 nM
- IC50 (EGFR LRCS (L858R/C797S); [10]): > 1000 nM
- IC50 (EGFR LRCS (L858R/C797S); [11]): > 1000 nM

Structure (SMILES): Cc1nn(C)c2c1-c1nccc(n1)Nc1cc(c(-c3ccc(C(C)(C)O)cn3)cn1)NCC[C@@H](C)O2
- IC50 [1, 12]: < 10 nM
- IC50 [1, 13]: < 10 nM
- IC50 (EGFR D19CS (del19/C797S); [14]): < 10 nM
- IC50 (EGFR D19CS (del19/C797S); [15]): < 10 nM
- IC50 (EGFR WT; [16]): > 1000 nM
- IC50 (EGFR WT; [17]): 10 to 100 nM
- IC50 [2, 18]: < 10 nM
- IC50 (EGFR LRCS (L858R/C797S); [19]): 10 to 100 nM
- IC50 (EGFR LRCS (L858R/C797S); [20]): < 10 nM

Structure (SMILES): Cc1nn(C)c2c1-c1nccc(n1)Nc1cc(c(-c3ncc(CN4CC(CC(F)F)C4)cc3F)cn1)N[C@@H](C)CCO2
- IC50 [1, 3]: < 10 nM
- IC50 [1, 4]: < 10 nM
- IC50 (EGFR D19CS (del19/C797S); [5]): < 10 nM
- IC50 (EGFR D19CS (del19/C797S); [6]): < 10 nM
- IC50 (EGFR WT; [7]): > 1000 nM
- IC50 (EGFR WT; read-out: EGFR WT IC50, ATP Km): 10 to 100 nM
- IC50 [2, 8]: < 10 nM
- IC50 [2, 9]: < 10 nM
- IC50 (EGFR LRCS (L858R/C797S); [10]): 10 to 100 nM
- IC50 (EGFR LRCS (L858R/C797S); [11]): < 10 nM

Structure (SMILES): C[C@H]1CCOc2c(cnn2C)-c2nccc(n2)Nc2cc(c(-c3ncc(CN4CCOCC4)cc3F)cn2)N1
- IC50 [1, 3]: < 10 nM
- IC50 [1, 4]: < 10 nM
- IC50 (EGFR D19CS (del19/C797S); [5]): 10 to 100 nM
- IC50 (EGFR D19CS (del19/C797S); [6]): < 10 nM
- IC50 (EGFR WT; [7]): > 1000 nM
- IC50 (EGFR WT; read-out: EGFR WT IC50, ATP Km): < 10 nM
- IC50 [2, 8]: < 10 nM
- IC50 [2, 9]: < 10 nM
- IC50 (EGFR LRCS (L858R/C797S); [10]): 10 to 100 nM
- IC50 (EGFR LRCS (L858R/C797S); [11]): < 10 nM

Structure (SMILES): C[C@H]1CCNc2cc(ncc2-c2ccn(C(F)F)n2)Nc2ccnc(n2)-c2cnn(C)c2O1
- IC50 [1, 3]: < 10 nM
- IC50 [1, 4]: < 10 nM
- IC50 (EGFR D19CS (del19/C797S); [5]): < 10 nM
- IC50 (EGFR D19CS (del19/C797S); [6]): < 10 nM
- IC50 (EGFR WT; [7]): > 1000 nM
- IC50 (EGFR WT; read-out: EGFR WT IC50, ATP Km): < 10 nM
- IC50 [2, 8]: < 10 nM
- IC50 [2, 9]: < 10 nM
- IC50 (EGFR LRCS (L858R/C797S); [10]): 100 to 1000 nM
- IC50 (EGFR LRCS (L858R/C797S); [11]): < 10 nM

Structure (SMILES): Cn1nc(-c2cnc3cc2NC[C@@H](F)COc2c(cnn2C)-c2nccc(n2)N3)cc1C(F)(F)F
- IC50 [1, 3]: > 1000 nM
- IC50 [1, 4]: < 10 nM
- IC50 (EGFR D19CS (del19/C797S); [5]): > 1000 nM
- IC50 (EGFR D19CS (del19/C797S); [6]): > 1000 nM
- IC50 (EGFR WT; [7]): > 1000 nM
- IC50 (EGFR WT; read-out: EGFR WT IC50, ATP Km): 100 to 1000 nM
- IC50 [2, 8]: 10 to 100 nM
- IC50 [2, 9]: < 10 nM
- IC50 (EGFR LRCS (L858R/C797S); [10]): > 1000 nM
- IC50 (EGFR LRCS (L858R/C797S); [11]): 100 to 1000 nM

Structure (SMILES): C[C@H]1CCOc2c(cnn2C)-c2nccc(n2)Nc2cc(c(-c3cc(C(F)(F)F)n(C)n3)cn2)N1
- IC50 [1, 3]: < 10 nM
- IC50 [1, 4]: < 10 nM
- IC50 (EGFR D19CS (del19/C797S); [5]): 10 to 100 nM
- IC50 (EGFR D19CS (del19/C797S); [6]): < 10 nM
- IC50 (EGFR WT; [7]): > 1000 nM
- IC50 (EGFR WT; read-out: EGFR WT IC50, ATP Km): 10 to 100 nM
- IC50 [2, 8]: < 10 nM
- IC50 [2, 9]: < 10 nM
- IC50 (EGFR LRCS (L858R/C797S); [10]): 100 to 1000 nM
- IC50 (EGFR LRCS (L858R/C797S); [11]): 10 to 100 nM

Structure (SMILES): Cn1ncc2c1OC[C@H](F)CNc1cc(ncc1-c1ccc(OC(F)F)cn1)Nc1ccnc-2n1
- IC50 [1, 3]: > 1000 nM
- IC50 [1, 4]: 10 to 100 nM
- IC50 (EGFR D19CS (del19/C797S); [5]): > 1000 nM
- IC50 (EGFR D19CS (del19/C797S); [6]): > 1000 nM
- IC50 (EGFR WT; [7]): > 1000 nM
- IC50 (EGFR WT; read-out: EGFR WT IC50, ATP Km): > 1000 nM
- IC50 [2, 8]: 100 to 1000 nM
- IC50 [2, 9]: 10 to 100 nM
- IC50 (EGFR LRCS (L858R/C797S); [10]): > 1000 nM
- IC50 (EGFR LRCS (L858R/C797S); [11]): > 1000 nM

Structure (SMILES): Cc1nn(C)c2c1-c1nccc(n1)Nc1cc(c(-c3ncc(CN4CCC(C(C)(C)O)CC4)cc3F)cn1)N[C@@H](C)CCO2
- IC50 [1, 12]: < 10 nM
- IC50 [1, 13]: < 10 nM
- IC50 (EGFR D19CS (del19/C797S); [14]): < 10 nM
- IC50 (EGFR D19CS (del19/C797S); [15]): < 10 nM
- IC50 (EGFR WT; [16]): > 1000 nM
- IC50 (EGFR WT; [17]): < 10 nM
- IC50 [2, 18]: < 10 nM
- IC50 (EGFR LRCS (L858R/C797S); [19]): 10 to 100 nM
- IC50 (EGFR LRCS (L858R/C797S); [20]): < 10 nM

Read-outs that look alike come from different tables or passages of the source.
